Chains of the proteins cited; added tags and fusions are not shown.
UniProt P03372, whole entry: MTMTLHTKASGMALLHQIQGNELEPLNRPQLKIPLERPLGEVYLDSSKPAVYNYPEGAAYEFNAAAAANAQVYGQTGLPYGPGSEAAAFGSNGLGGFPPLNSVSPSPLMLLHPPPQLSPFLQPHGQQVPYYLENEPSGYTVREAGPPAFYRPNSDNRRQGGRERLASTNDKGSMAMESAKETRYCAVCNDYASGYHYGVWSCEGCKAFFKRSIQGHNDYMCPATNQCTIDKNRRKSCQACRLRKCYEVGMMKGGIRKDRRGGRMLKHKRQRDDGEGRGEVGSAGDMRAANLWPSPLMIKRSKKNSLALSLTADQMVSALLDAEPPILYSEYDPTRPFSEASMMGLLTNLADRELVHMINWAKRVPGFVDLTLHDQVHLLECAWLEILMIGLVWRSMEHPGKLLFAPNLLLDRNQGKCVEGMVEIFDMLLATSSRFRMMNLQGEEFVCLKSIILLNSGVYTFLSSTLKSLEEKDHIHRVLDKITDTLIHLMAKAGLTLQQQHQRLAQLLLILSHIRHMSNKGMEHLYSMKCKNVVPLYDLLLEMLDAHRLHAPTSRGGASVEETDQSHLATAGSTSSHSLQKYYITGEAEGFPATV

In patent publication US20040043420A1, “Method of identifying conformation-sensitive binding peptides and uses thereof” (priority 2003, published 2004):

Target: ERα (Homo sapiens, UniProt P03372)
Experiment: Binding of the peptide probes to ERα in the presence of modulators, dose response (Table 15a)
Conditions: positive: % of maximum stimulation by 4-OH tamoxifen, negative: % of reduction by ICI 182,780

Equiv. (equivalency), peptide probe α/βIII on ERα (probe α/βIII): 0%
Equiv. (equivalency), peptide probe α/βIV on ERα (probe α/βIV): 0%
Equiv. (equivalency), peptide probe α/βV on ERα (probe α/βV): 0%
SMILES: CC/C(=C(\c1ccc(O)cc1)c1ccc(/C=C/C(=O)O)cc1)c1ccccc1 [GW7604]
